# Reference: PubChem BioAssay AID686979 (National Center for Advancing Translational Sciences (NCATS), 2013)
# Several values for one entry are separate records, joined by “and”; a condition that tells them apart may be missing. Entries that show only a call come without a potency. Identical values can stand only once. The entries are a selection whose mix differs from that of the whole data set. Records with an inconclusive call do not appear. Activity calls are given as the source filed them. The call rests on the fitted dose curve; in most records, active means well fitted inhibition curve with a large enough effect; inconclusive means small, poorly fitted or top-dose-only effect; inactive means flat fitted curve, though single readings scatter.
# Experiment: qHTS for Inhibitors of human tyrosyl-DNA phosphodiesterase 1 (TDP1): qHTS in cells in presence of CPT; further: nearly all actives have a fitted effect of over 55% in size
# Details: chicken DT40 Tdp1-/-;hTDP1 cells + 20 nM CPT, ATP luminescence, 48 h; series mostly up to 46.2 µM
# Potency means the concentration at half of the fitted maximal effect.
row,SMILES,Potency
1,COc1ccc(CC(C)NCC(O)c2ccc(O)c(NC=O)c2)cc1 (stereo not given),inactive
2,N[C@@H](Cc1ccc(N(CCCl)CCCl)cc1)C(=O)O,active: 531 nM and active: 259 nM
3,COc1ccc(C[C@@H](C)NC[C@H](O)c2ccc(O)c(NC=O)c2)cc1,inactive
4,NC(Cc1ccc(N(CCCl)CCCl)cc1)C(=O)O (stereo not given),active: 7.31 µM and active: 282 nM
5,COc1ccc(C[C@H](C)NC[C@@H](O)c2ccc(O)c(NC=O)c2)cc1,inactive
